Reference: ChEMBL document CHEMBL3392969, “SAR156497, an exquisitely selective inhibitor of aurora kinases” (J Med Chem, 2015)

The chains behind the UniProt entries cited, without tags or fusion partners.
UniProt Q96GD4, whole entry: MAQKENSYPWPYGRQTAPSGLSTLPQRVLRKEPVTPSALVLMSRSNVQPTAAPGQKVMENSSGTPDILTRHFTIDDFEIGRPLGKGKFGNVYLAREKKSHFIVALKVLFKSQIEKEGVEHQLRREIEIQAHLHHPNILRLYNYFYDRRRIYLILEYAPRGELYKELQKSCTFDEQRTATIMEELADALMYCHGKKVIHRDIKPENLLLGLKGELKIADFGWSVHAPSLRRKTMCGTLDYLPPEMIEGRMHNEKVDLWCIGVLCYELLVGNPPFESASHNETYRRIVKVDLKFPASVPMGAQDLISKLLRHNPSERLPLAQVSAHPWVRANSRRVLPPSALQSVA

Biological target: Aurora kinase B (Homo sapiens, UniProt Q96GD4)

- IC50: > 10 µM
SMILES: Nc1nc(O)c2c(n1)NC1=C(C(=O)CCC1)C2c1ccc(Sc2nc3ccccc3[nH]2)o1 (racemic)
